Experimental data as given in ChEMBL document CHEMBL5550209, “Hit-to-Lead Optimization of Heterocyclic Carbonyloxycarboximidamides as Selective Antagonists at Human Adenosine A3 Receptor” (J Med Chem, 2024).

Assays:
in vitro [1] = settings: human, plasma
in vitro [2] = settings: human, Caco-2
in vitro [3] = settings: human, Caco-2; remark: listed apart in the source
in vitro [4] = settings: human, liver microsomes

Row | fraction unbound at 24 h, 10 µM (in vitro [1]) | Papp B→A (in vitro [2]) [×10⁻⁶ cm/s] | Papp A→B (in vitro [3]) [×10⁻⁶ cm/s] | microsomal CLint at 1 h, 0.1 µM (in vitro [4]) [µL/min/mg] | SMILES
1 | 0.01 | 0.6 | 7.2 |  | Cc1onc(-c2c(Cl)cccc2Cl)c1C(=O)ON=C(N)c1ccc(Br)cn1
2 |  |  |  | 287 | Cc1nc(C(=N)NOC(=O)c2c(-c3c(Cl)cccc3Cl)noc2C)cs1
